BindingDB's records for doi:10.1021/acs.jmedchem.0c00262 (University of Leeds, 2020)

Assay: Antagonist activity at GP6 in human platelet assessed as reduction in CRP-induced platelet-aggregation preincubated for 60 secs followed by collagen stimulation by light transmission aggregometry

For `CCCCc1nc(Cl)c(CO)n1Cc1ccc(-c2ccccc2-c2nnn[nH]2)cc1` [NSC_3961], the IC50 was 4 µM.
